Measured values from PubChem BioAssay AID583 (Sanford-Burnham Center for Chemical Genomics, 2007).
The entries are a selection whose mix differs from that of the whole data set. Activity calls are given as the source filed them. Rule as the data show it: active = displacement above about 50%; inactive = the rest.

Sequences of proteins named here, by UniProt entry; tags and fusion partners are left off.
UniProt P0DMV8, whole entry: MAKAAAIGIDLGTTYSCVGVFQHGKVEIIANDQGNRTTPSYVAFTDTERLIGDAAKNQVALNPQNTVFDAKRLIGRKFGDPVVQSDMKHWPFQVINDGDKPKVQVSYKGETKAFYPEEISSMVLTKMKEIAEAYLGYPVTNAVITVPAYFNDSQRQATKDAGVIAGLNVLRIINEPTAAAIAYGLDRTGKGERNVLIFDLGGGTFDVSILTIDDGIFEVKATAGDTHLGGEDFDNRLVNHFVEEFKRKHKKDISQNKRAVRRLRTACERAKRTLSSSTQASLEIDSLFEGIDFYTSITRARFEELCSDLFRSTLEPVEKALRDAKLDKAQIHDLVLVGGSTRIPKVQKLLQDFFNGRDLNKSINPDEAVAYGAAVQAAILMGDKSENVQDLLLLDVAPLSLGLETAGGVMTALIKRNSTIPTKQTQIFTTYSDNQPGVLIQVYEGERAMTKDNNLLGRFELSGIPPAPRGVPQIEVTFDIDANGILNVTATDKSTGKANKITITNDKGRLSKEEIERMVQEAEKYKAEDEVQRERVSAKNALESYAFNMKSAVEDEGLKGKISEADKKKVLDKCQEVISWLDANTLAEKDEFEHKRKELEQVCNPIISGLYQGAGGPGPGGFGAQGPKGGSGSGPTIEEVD

What follows are compounds tested against Heat shock 70 kDa protein 1A (Homo sapiens) (UniProt P0DMV8) (assay: small molecules displacing fluorescent ligand from Hsp70 – biochemical, fluorescence polarization, primary screen (AID 583;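 also: plate controls were vehicle for no effect and reference ligand for full effect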)). Settings: Hsp70 fluorescence polarization probe displacement, mP; at 20 µM; active compounds read high.

SMILES	displacement
N#CC1(Nc2ccccc2)CCN(CCc2ccccc2)CC1	inactive: 3.5%
O=C(NCC1(N2CCOCC2)CCCCC1)c1cc(=O)[nH]c2ccccc12	inactive: 0.4%
COc1ccc(NC2CCN(CCc3ccccc3)CC2)c(OC)c1	inactive: -3.2%
O=C(OC1CN2CCC1CC2)C1c2ccccc2Oc2ccccc21 (stereo not given)	inactive: 2.9%
O=C(NCC1(N2CCOCC2)CCCCC1)c1cc2ccccc2o1	inactive: 2.7%
CCOc1ncccc1C(=O)NCC1(N2CCOCC2)CCCCC1	inactive: 1%
CCC(CO)(C(=O)OC1CN2CCC1CC2)c1ccccc1 (stereo not given)	inactive: -1.9%
Fc1ccccc1NC1CCN(Cc2ccccc2)CC1	inactive: 1%
c1ccc(CN2CCC(Nc3ccccc3)CC2)cc1	inactive: 6.3%
N/C(=N\O)c1c(N)no[n+]1[O-]	inactive: -0.2%
